Test system: WT SARS-CoV-2 or OTS4-5-7-8 in VeroE6/TMPRSS2 cells
Format: cell-based

## O=c1[nH]cc(F)c(=O)[nH]1 [5-Fluorouracil]
  number of infectious virus particles in a TCID50 virus assay on adding a mutagen: reduced the number of infectious virus particles
